# Yeast mating assay 2: variants of the scFv Ab-91

Antigen: PDVDLGDISGINAS, a 14-residue peptide of the SARS-CoV-2 spike HR2 region.

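The starting antibody came from a phage panning campaign against this peptide. The library (AAYL51) carries one to three amino acid substitutions per variant, with no insertions or deletions. Affinity was read by AlphaSeq, a pooled yeast mating assay with surface-displayed partners. Binding brings cells together so that they mate, and sequencing counts the barcode pairs among the diploids. A regression on co-assayed BCL2-family reference pairs converts the normalised counts of each replicate to an apparent Kd. The assay was run in three technical replicates.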

The variants keep the light chain, the linker and the frameworks of Ab-91 (scFv order VL, a (GGGGS)3 linker, VH).
VL: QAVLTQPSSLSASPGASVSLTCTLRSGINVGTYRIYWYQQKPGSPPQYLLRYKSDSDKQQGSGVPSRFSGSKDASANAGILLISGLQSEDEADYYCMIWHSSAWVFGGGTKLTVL
VH: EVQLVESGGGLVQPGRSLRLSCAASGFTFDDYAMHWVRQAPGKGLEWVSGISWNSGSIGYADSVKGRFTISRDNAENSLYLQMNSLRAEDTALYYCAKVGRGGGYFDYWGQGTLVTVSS

Substitutions are numbered in sequence along the VH above, starting at 1 (not Kabat).
Values are log10 of the apparent Kd in nM; lower means stronger binding.
A pair that was not seen in that replicate is written "n.d."; this usually means weak binding, but a binder can also be missed.
Empty control strains, which show no peptide, gave a signal in 21% of pairings with library AAYL51; the median was 4.54 and 95% of these signals were weaker than 3.26. No background was subtracted. Also given: how often the same scFv was detected with the empty control strains, with their mean in brackets.
For reference, the parent read 1.86 as the reference entry and 0.88 as a member of this library.

changes	log10 Kd, replicates	control signals
A61G	1.93 1.90 1.81	0 of 9
S52W R101P	n.d. n.d. n.d.	0 of 9
G26T S52Y G104I	4.17 4.77 3.87	3 of 9 (4.31)
I58A A61F K65D	4.71 5.57 4.69	5 of 9 (4.87)
F29P G56D Y108T	2.53 2.38 1.95	6 of 9 (4.46)
Y32C V99L	3.50 n.d. n.d.	1 of 9 (3.67)
G26M G59T Y108G	4.34 4.82 n.d.	5 of 9 (4.88)
A33D Y60C Y108V	n.d. n.d. n.d.	0 of 9
V64P K65G Y105M	n.d. n.d. n.d.	1 of 9 (5.18)
H35V F106A	3.78 n.d. n.d.	1 of 9 (3.24)
K65I V99M G103E	n.d. n.d. n.d.	1 of 9 (2.29)
F27G Y60A Y105K	n.d. n.d. n.d.	0 of 9
F29Q G56V G104Y	6.00 n.d. n.d.	2 of 9 (3.86)
T28W Y32Q G56Q	n.d. n.d. n.d.	0 of 9
I51C V99E G100A	n.d. n.d. n.d.	0 of 9
D31S I51L I58F	2.19 2.13 2.10	4 of 9 (4.35)
G26F S52Y	n.d. n.d. n.d.	0 of 9
F27N I51E Y108M	n.d. 5.38 n.d.	2 of 9 (3.83)
G59I A61Q G100F	n.d. n.d. n.d.	4 of 9 (4.29)
F27M I58H V99N	n.d. n.d. n.d.	1 of 9 (3.53)
G50I G56A D107N	n.d. n.d. n.d.	0 of 9
S57C I58N G102D	n.d. n.d. n.d.	2 of 9 (2.78)
D31C S55G S57A	6.33 n.d. n.d.	5 of 9 (4.69)
V64Y G100R G103T	5.74 5.88 4.39	6 of 9 (5.00)
N54L F106W	n.d. n.d. n.d.	0 of 9
G26L G102E Y108S	2.80 2.46 2.65	2 of 9 (4.68)
F27S R101Q G103C	n.d. n.d. n.d.	1 of 9 (4.69)
D62F V99W D107H	n.d. n.d. 5.36	1 of 9 (6.39)
F29D Y32M G50L	n.d. n.d. n.d.	0 of 9
G59K G102V G104E	n.d. n.d. n.d.	0 of 9
S55K G104R Y108C	4.39 4.30 n.d.	4 of 9 (5.19)
F29G H35K I51N	4.34 3.38 4.82	0 of 9
S52M G56S A61V	5.00 n.d. n.d.	6 of 9 (4.56)
T28V H35S N54K	3.86 n.d. n.d.	2 of 9 (3.57)
Y32S S63H Y105S	n.d. n.d. n.d.	0 of 9
G56W I58P R101T	4.85 n.d. n.d.	1 of 9 (4.23)
S52W Y60E	n.d. n.d. n.d.	0 of 9
T28Q G56L I58P	2.85 n.d. n.d.	0 of 9
S52D G104M Y105T	5.13 4.78 5.34	3 of 9 (6.06)
I51A S52G S57H	n.d. n.d. n.d.	0 of 9
S57A V64Y V99A	n.d. n.d. n.d.	1 of 9 (4.98)
G26E I58N Y60M	n.d. n.d. n.d.	1 of 9 (4.33)
F27M Y105F Y108C	3.55 3.84 3.77	8 of 9 (4.84)
Y60A V64T G102S	n.d. n.d. n.d.	1 of 9 (3.73)
V99D R101T G102F	n.d. n.d. 2.92	2 of 9 (3.07)
A33D V99S R101A	5.16 4.62 n.d.	3 of 9 (4.10)
F29L Y60A	n.d. n.d. n.d.	0 of 9
H35C V64I Y108F	4.76 4.64 n.d.	3 of 9 (4.31)
G26A I51S R101M	5.16 5.15 4.93	2 of 9 (4.94)
G103Y G104F D107R	n.d. n.d. n.d.	1 of 9 (5.64)
H35L G56I D62H	n.d. n.d. n.d.	1 of 9 (2.53)
V99G R101C Y108I	n.d. n.d. n.d.	0 of 9

From the list, the first 6 with no signal in any replicate:

{"changes": "S52W R101P", "log10 Kd, replicates": "n.d. n.d. n.d.", "control signals": "0 of 9"}
{"changes": "A33D Y60C Y108V", "log10 Kd, replicates": "n.d. n.d. n.d.", "control signals": "0 of 9"}
{"changes": "V64P K65G Y105M", "log10 Kd, replicates": "n.d. n.d. n.d.", "control signals": "1 of 9 (5.18)"}
{"changes": "K65I V99M G103E", "log10 Kd, replicates": "n.d. n.d. n.d.", "control signals": "1 of 9 (2.29)"}
{"changes": "F27G Y60A Y105K", "log10 Kd, replicates": "n.d. n.d. n.d.", "control signals": "0 of 9"}
{"changes": "T28W Y32Q G56Q", "log10 Kd, replicates": "n.d. n.d. n.d.", "control signals": "0 of 9"}

Values reported by Engelhart et al. 2022, doi:10.1038/s41597-022-01779-4 (FLAb copy).